Measurements from publication PMC9162929, “Conversion of recombinant human ferritin light chain inclusion bodies into uniform nanoparticles in Escherichia coli for facile production” (Engineering in Life Sciences, 2022).

Target: the molecule itself
Experiment: SEC; HP-SEC on TSKgel G3000SWxl, PBS with 0.1 M Na2SO4, 0.5 mL/min, detection at 280 nm; BSA (67 kDa) as size marker

B1: recombinant human ferritin light chain (natural protein, UniProt P02792 1-175, looked up)
chain: MSSQIRQNYSTDVEAAVNSLVNLYLQASYTYLSLGFYFDRDDVALEGVSHFFRELAEEKREGYERLLKMQNQRGGRALFQDIKKPAEDEWGKTPDAMKAAMALEKKLNQALLDLHALGSARTDPHLCDFLETHFLDEEVKLIKKMGDHLTNLHRLGGPEAGLGEYLFERLTLKHD
notes: human ferritin light chain, UniProtKB P02792; codon-optimised gene, amplified with primers from the start codon (…) to the stop codon; tag-free; Tag-free; Assembled nanoparticle; the number of subunits in the rhFTL particle is not measured here (the introduction says natural human ferritin generally contains 24 subunits); ESI-MS mass 19878.0 Da, said to coincide with the theoretical value; the …
  binding result: binds
